Source: patent US9403843B2, “Cysteine protease inhibitors and uses thereof” (The Trustees of Columbia University in the City of New York, priority 2012, dated 2016)
Read-outs that look alike come from different tables or passages of the source.

Sequences of proteins named here, by UniProt entry; tags and fusion partners are left off. A change or cut given only in a name is not applied to a line headed by its entry.
UniProt P07384: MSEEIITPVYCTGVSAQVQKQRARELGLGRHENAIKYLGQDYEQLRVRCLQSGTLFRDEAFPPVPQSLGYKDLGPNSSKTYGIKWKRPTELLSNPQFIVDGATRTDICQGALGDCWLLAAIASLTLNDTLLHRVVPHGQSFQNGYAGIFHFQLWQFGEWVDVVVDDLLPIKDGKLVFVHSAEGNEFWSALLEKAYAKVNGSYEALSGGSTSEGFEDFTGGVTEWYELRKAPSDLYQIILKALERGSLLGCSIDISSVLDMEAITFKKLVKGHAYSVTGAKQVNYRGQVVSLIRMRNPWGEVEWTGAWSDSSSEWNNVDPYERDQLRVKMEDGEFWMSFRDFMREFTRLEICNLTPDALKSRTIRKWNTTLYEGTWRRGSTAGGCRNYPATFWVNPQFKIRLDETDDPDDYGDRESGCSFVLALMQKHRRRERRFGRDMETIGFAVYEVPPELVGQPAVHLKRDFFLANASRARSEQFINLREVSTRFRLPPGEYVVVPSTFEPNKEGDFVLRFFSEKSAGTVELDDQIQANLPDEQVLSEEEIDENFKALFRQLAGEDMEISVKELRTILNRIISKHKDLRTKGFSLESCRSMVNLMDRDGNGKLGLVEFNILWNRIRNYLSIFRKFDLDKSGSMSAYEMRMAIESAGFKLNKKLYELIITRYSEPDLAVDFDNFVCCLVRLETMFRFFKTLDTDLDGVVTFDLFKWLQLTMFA

Columns and labels:
full-length human Cal1 [1] = molecular target: T1, full-length human Cal1 (Homo sapiens (Human), UniProt P07384); assay: Calpain inhibition FRET assay; type: biochemical; conditions: Table 2; approximate IC50; read-out: Cal I IC50
Method: Calpain activity was measured using full-length human Cal1 in the presence of a FRET substrate. IC50 values were approximated by co-incubation of varying concentrations of the appropriate inhibitor (10, 100, 500, 1000 nM) in the presence of the FRET substrate (DABCYL)TPLK-SPPSPR-(EDANS) (SEQ ID NO: 5) and activation buffer. Fluorescence was measured following a 20 min incubation and % inhibition calculated by normalizing to control experiments containing no inhibitor. A peptide inhibitor, Z-LLY-FMK (SEQ ID NO: 6), was used as a positive control. In the case of potent inhibitors, the concentration-response was extended to include 1, 10, 50, 100, 250, and 500 nM inhibitor.
The Calbiochem InnoZyme activity kit was used for measuring the inhibition effect inhibitors on human erythrocyte calpain 1 activity. A calpain FRET substrate, (DABCYL)-[…]-(EDANS) (SEQ ID NO: 9), was used to detect the activity of Cal1. 20 μM of the FRET substrate, 10 nM of native Cal1, and 20 μM TCEP (reducing agent) were added to the reaction mixture containing assay buffer (Tris [10 mM], NaCl [100 mM], pH 7.4). Cal1 was activated by the addition of 10 μM calcium. Cleavage of the scissile bond amide bond, K-S, releases the fluorophore (EDANS) from the internal quenching molecule (DABCYL), resulting in an increase in fluorescence measured at 320 nm excitation and 480 nm emission wave lengths for 30 min. […]

full-length human Cal1 [2] = molecular target: T1, full-length human Cal1; assay: Calpain inhibition FRET assay; type: biochemical; conditions: Table 3, 20 min incubation, FRET substrate

**Q.** Which results are given for CC(C)C[C@H](NC(=O)[C@H]1O[C@@H]1C(=O)O)C(=O)Nc1nc(-c2ccc(F)cc2)cs1 [Compound 24a, (2S,3S)-3-((S)-1-(4-(4-fluorophenyl)thiazol-2-ylamino)-4-methyl-1-oxopentan-2-ylcarbamoyl)oxirane-2-carboxylic acid]?
**A.** IC50 (full-length human Cal1 [1]): 30 nM; IC50 (full-length human Cal1 [2]): 50 nM
